Data taken from patent US7732429B2 (Trustees of Tufts College, priority 1994, dated 2010).

The chains behind the UniProt entries cited, without tags or fusion partners. Where a name states a change or a piece, a line headed by the entry shows the natural chain unless it says otherwise.
UniProt P02980: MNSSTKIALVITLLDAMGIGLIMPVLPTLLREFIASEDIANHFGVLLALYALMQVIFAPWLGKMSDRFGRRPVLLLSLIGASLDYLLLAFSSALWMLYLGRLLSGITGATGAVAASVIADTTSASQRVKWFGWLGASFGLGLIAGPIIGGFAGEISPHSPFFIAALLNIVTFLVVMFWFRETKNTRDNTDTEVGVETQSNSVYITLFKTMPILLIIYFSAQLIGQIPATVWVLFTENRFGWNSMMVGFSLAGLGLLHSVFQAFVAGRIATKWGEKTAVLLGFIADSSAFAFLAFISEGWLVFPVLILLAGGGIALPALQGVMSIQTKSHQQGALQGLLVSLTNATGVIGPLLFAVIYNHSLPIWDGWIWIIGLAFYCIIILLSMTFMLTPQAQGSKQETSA

Biological target: T1, TET proteins, everted membrane vesicles of E. coli strain D1-209 bearing the Class B tetracycline resistance determinant (Escherichia coli, UniProt P02980)
T1 construct: Everted vesicles, to which the TET proteins responsible for tetracycline efflux are attached; endogenous in cells; host or cells: E. coli strain D1-209 (everted inner membrane vesicles)
Test: biochemical

## CC1c2cccc(O)c2C(=O)C2=C(O)C3(O)C(=O)C(C(N)=O)=C(O)C(N(C)C)C3C(OC(=O)Cc3ccccc3)C21 (stereo not shown) [Cmpd 3]
  IC50: 1600 nM
